The numbers were not newly measured in patent publication US11771641B2, “Method for dyeing keratinous material by means of a premix of aminosilicone and a chromophoric compound” (Henkel AG & Co. KGaA, priority 2019, dated 2023), which cites them from elsewhere.

The conditions of this series: 25° C.

“3,4,5,6-tetrachloro-2-(1,4,5,8-tetrabromo-6-hydroxy-3-oxoxanthen-9-yl)benzoic acid [Acid Red 92]”: the solubility in water entry is “greater than 10 g/L”.
